2 substances from publication PMC8899474, “Discovery and Characterization of the Key Constituents in Ginkgo biloba Leaf Extract With Potent Inhibitory Effects on Human UDP-Glucuronosyltransferase 1A1” (Frontiers in Pharmacology, 2022) can be followed below.

A word on the IC50: it is the midpoint of a concentration-inhibition curve.

The target in this assay is T1, hUGT1A1 (Homo sapiens, UniProt P22309).
T1 sequence (P22309 26-533): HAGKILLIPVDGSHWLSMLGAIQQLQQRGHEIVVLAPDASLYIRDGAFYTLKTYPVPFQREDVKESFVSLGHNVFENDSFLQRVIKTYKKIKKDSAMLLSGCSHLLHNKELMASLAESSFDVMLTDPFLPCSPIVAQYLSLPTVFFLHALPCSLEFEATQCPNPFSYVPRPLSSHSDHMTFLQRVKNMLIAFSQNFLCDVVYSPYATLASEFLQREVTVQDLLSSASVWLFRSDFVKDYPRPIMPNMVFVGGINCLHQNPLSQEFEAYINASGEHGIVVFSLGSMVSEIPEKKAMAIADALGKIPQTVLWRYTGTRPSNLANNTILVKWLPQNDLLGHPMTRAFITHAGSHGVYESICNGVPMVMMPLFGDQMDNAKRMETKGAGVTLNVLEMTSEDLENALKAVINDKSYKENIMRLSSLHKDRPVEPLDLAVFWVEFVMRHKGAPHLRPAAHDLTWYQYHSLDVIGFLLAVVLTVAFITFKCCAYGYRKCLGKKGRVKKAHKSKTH
In words: UGT1A1 inhibition assay in living HeLa-UGT1A1 cells (NHPN-O-glucuronidation, LC-FD). Also on record: expressed in transfected cells; host or cells: HeLa cells, stably transduced with lentivirus (HeLa-UGT1A1). Particulars: hUGT1A1-catalyzed NHPN-O-glucuronidation in HeLa-UGT1A1 cells. It counts as cell-based. The procedure: A RF-20A FD detector coupled UFLC system (Shimadzu, Kyoto, Japan), equipped with a DGU-20A5R vacuum degasser, two LC-20ADXR pumps, a SIL-20ACXR autosampler and a CTO-20A column oven, was used to quantify NHPN and NHPNG. Chromatographic separation of analytes was carried out on a shim-pack Acchrom HC-C18 analytical column (2.0 × 150 mm, 4.6 μm particle size), while the column temperature was kept at 40°C. The flow rate was kept at 0.5 ml/min. The mobile phase consisted of acetonitrile (A) and water containing 0.2% formic acid (B). The gradient of the mobile phase was as follows: 0–0.5 min, 80–60% B; 0.5–3.5 min, 60–5% B; 3.5–5 min, 5% B; 5–7.5 min, equilibration with 80% B. The excitation wavelength and the emission wavelength were set at 370 and 520 nm, respectively for detection.
The inhibitory effects of herbal products and chemical constituents of GBL extract on UGT1A1 were investigated in living HeLa-UGT1A1 cells by using a specific fluorescent substrate, NHPN, as a probe. HeLa-UGT1A1 cells were cultured at 37°C in 5% CO2 in Modified Eagle’s Medium (MEM) containing 0.1% antibiotic-antimycoticmix, supplemented with 10% fetal bovine serum (FBS). HeLa-UGT1A1 cells were seeded in 96-well plates and cultured for 24 h. […]

Like-named read-outs stand apart in the source and are kept apart here.

Regarding Ginkgolide B, under “read-out: IC50”, the 50% inhibitory concentration (IC50) is above 100 µM. Regarding Ginkgolide C, the IC50 was above 100 µM.
